{"source": "patent US7655396B1", "about": "“Methods for detecting receptor modulator activity” (Allergan, Inc., priority 2006, dated 2010)", "biological_target": "T1, rat α 1B receptor (Rattus norvegicus, UniProt P15823)", "T1 sequence (P15823 1-515)": "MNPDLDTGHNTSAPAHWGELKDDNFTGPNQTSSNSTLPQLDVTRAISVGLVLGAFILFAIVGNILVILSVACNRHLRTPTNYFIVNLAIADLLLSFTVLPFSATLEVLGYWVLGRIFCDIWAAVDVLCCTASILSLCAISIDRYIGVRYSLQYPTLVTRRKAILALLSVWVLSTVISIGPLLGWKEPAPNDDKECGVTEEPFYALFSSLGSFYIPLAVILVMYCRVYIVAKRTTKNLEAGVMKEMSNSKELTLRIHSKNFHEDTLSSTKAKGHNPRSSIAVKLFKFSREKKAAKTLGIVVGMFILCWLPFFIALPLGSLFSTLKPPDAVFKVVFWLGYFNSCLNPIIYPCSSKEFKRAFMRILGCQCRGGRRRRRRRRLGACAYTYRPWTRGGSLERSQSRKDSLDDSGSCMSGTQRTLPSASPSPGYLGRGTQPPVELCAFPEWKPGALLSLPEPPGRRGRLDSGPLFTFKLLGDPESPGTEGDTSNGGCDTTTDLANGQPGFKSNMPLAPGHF", "test": "cell-based", "data": [{"smiles": "Clc1ccc2nsnc2c1NC1=NCCN1", "note": "[Tizanidine]", "values": [{"measurement": "EC50", "setting": "EC50, 35° C., FIG. 6", "value": 172, "unit": "nM"}, {"measurement": "EC50", "setting": "EC50, room temperature, FIG. 5", "value": 1200, "unit": "nM"}]}]}
